Values of other authors as cited in US12098118B2 (Regents of the University of Minnesota, priority 2018, dated 2024).

System: mice
Settings: Wade et al. 2008; cited from earlier work

For N=C(N)NCCCCN [agmatine, 1-(4-aminobutyl)guanidine, reference compound], the oral fentanyl self-administration is listed as “diminishes”.
